{
  "source": "ChEMBL document CHEMBL3351866",
  "about": "“Indole alkaloid glycosides from the aerial parts of Strobilanthes cusia” (2014)",
  "tested_on": "Staphylococcus aureus",
  "test": "Antibacterial activity against Staphylococcus aureus assessed as growth inhibition after 24 hrs by broth microdilution assay",
  "format": "functional",
  "data": [
    {"sequence": "GENTAMICIN", "values": [
      {"measurement": "MIC", "value": 0.1, "unit": "µM"}
    ]}
  ]
}
